The target in assay [1] is USP25 (USP25-His6, Boston Biochem E-546) (Homo sapiens, UniProt Q9UHP3). Briefly: Ubiquitin-Rhodamine 110 Assay for USP25 Activity, Example A-2. The assay is classed as biochemical. Particulars: read-out: USP25 A-2 IC50 range.
Assay [2] deals with USP28 (His-tagged USP28-FL-mammalian) (Homo sapiens, UniProt Q96RU2). Briefly: Ubiquitin-Rhodamine 110 Assay for USP28 Activity, Example A-1(a). Particulars: read-out: USP28 A-1(a) IC50 range.

Sequences of proteins named here, by UniProt entry; tags and fusion partners are left off.
UniProt Q9UHP3, whole entry: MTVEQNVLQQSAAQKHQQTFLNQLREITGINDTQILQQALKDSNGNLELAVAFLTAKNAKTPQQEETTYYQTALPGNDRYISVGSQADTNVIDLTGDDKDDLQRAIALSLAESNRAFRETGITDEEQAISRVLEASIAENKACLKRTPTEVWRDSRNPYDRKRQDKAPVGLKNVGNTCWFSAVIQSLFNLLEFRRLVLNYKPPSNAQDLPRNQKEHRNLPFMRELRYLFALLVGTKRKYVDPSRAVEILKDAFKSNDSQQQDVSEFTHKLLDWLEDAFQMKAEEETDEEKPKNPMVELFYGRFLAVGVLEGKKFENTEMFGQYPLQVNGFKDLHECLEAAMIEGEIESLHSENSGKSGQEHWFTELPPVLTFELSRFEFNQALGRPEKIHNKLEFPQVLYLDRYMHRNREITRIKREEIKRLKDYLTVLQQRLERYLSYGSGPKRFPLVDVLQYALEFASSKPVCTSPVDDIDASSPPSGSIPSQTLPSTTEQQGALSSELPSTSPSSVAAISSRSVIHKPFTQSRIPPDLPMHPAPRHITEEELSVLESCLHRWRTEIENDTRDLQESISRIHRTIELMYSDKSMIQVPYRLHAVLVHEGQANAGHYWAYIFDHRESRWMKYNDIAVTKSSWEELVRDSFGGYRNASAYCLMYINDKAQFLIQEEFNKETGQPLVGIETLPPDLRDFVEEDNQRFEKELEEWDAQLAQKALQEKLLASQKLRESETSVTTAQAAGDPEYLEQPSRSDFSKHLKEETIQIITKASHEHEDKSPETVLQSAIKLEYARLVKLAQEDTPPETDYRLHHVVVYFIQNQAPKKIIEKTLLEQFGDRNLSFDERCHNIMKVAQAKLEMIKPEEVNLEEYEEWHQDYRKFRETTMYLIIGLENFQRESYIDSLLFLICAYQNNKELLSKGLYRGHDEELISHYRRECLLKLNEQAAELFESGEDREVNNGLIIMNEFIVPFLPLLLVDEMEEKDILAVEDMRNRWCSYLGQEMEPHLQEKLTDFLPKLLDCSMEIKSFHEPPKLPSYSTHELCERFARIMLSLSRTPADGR
UniProt Q96RU2, whole entry: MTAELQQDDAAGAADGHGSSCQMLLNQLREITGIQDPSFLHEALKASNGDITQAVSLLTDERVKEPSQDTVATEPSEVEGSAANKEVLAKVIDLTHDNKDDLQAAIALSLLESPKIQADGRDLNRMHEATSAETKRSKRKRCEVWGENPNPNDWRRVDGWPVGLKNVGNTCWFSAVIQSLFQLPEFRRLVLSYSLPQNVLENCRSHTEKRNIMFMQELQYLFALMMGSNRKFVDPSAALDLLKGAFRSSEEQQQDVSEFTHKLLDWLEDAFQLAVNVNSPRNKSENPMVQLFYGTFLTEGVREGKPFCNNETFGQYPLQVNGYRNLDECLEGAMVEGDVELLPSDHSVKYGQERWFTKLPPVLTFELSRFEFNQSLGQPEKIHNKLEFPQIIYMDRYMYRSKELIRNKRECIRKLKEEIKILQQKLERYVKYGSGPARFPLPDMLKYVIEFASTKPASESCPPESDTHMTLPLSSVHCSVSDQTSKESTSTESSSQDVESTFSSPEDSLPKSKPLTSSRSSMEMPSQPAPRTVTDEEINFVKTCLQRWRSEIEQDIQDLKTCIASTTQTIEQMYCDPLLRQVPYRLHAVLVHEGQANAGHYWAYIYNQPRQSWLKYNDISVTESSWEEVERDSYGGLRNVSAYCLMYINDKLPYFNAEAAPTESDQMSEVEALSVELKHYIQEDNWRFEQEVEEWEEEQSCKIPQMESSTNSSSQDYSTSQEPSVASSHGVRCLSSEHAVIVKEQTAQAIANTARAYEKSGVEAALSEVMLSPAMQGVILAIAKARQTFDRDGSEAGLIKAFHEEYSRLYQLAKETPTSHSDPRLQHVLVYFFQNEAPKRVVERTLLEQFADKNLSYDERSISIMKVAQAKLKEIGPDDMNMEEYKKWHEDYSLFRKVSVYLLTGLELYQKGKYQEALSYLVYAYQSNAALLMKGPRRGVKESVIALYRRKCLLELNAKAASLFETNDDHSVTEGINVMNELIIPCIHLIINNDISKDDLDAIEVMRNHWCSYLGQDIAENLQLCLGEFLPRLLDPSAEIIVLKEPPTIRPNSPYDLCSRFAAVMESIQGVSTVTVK

Structures are written as SMILES.

The IC50 is the concentration needed to halve the response being measured.

For the molecule `[2H]C1([2H])c2c(F)cc(N3CCNCC3)cc2OC[C@@H]1NC(=O)c1sc2nc(C)ccc2c1N`, the results for the concentration for half-maximal inhibition (IC50) in assay [1] and in assay [2] were 200 to 2000 nM and 1 to 50 nM, respectively.
For the molecule `[2H]C1([2H])c2c(F)cc(N3CCNCC3)cc2OC[C@H]1NC(=O)c1sc2nc(C)ccc2c1N` (single isomer, unassigned), the half-inhibitory concentration (IC50) in assay [1] was more than 2000 nM; in assay [2], 200 to 2000 nM.

These data come from patent US11524966B1 (Valo Early Discovery, Inc., priority 2017, dated 2022).
